Target: T1, Clr4_[…] (fission yeast)
T1 construct: source: E. coli Bl21(DE3) pLysS, purified (Ni-NTA, size exclusion chromatography); unlabeled or 15N- / 15N/13C-labeled; not shown: FLAG, C-terminal, kept
Experiment: NMR titration; 2D 1H-15N HSQC at 15°C, 50 μM 15N-labeled Clr4 CD or Clr4 1–191; nucleosome at ratios 1:0.5, 1:1, 1:2, peptide at 1:1 and 1:5; 50 mM phosphate buffer pH 6.8, 150 mM NaCl, 1 mM DTT, 10% D2O
Conditions: both partners purified

- binding result: binds
B1: [Lys(Me3)9]-Histone H3 ([…])-GGK(Biotin) peptide (peptide)
peptide: not shown
modifications: trimethyl-lysine at 9 (Lys(Me3)9); biotin on the C-terminal lysine (K(Biotin))
notes: C-terminal linker with the biotinylated lysine; also called H3K9me3 peptide; H3K9 peptide; source: bought: Eurogentec (synthetic peptide)

— PMC6649693, “Disordered region of H3K9 methyltransferase Clr4 binds the nucleosome and contributes to its activity” (Nucleic Acids Research, 2019)
